Results: US20260384438A1, “PYRROLOPYRIMIDINE CARBOXAMIDES” (published 2026)

Protein sequences, listed by entry. Tags and fused reporters are not part of them. Residues count along the entry.
UniProt Q8TD08, whole entry: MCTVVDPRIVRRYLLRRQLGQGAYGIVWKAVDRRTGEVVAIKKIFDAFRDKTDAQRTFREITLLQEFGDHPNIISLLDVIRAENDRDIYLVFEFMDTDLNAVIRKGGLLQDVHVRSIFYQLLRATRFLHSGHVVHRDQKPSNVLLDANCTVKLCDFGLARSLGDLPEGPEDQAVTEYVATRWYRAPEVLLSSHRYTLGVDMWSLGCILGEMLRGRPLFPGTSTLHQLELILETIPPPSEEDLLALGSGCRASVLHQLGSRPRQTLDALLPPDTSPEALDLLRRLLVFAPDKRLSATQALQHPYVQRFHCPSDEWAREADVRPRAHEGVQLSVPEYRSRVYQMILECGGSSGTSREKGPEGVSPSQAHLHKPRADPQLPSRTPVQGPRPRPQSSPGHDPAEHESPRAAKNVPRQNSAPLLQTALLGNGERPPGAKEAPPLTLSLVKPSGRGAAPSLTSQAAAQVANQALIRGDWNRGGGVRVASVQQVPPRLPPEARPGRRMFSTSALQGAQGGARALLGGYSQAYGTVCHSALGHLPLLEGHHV
UniProt Q13131, whole entry: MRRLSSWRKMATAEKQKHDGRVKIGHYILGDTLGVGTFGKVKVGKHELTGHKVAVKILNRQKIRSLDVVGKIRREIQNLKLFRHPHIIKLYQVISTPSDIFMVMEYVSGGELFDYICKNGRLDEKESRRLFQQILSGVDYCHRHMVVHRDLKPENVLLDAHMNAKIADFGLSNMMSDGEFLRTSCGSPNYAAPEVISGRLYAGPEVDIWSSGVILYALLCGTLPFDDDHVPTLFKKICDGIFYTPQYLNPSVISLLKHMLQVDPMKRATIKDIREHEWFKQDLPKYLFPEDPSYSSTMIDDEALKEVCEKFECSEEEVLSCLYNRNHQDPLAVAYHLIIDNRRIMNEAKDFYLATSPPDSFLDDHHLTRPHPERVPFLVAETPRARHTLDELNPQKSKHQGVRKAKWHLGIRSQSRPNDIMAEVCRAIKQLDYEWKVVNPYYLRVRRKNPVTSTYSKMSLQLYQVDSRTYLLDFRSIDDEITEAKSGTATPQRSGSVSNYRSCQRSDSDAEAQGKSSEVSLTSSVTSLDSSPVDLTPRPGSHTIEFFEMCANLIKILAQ
UniProt Q86SG6, whole entry: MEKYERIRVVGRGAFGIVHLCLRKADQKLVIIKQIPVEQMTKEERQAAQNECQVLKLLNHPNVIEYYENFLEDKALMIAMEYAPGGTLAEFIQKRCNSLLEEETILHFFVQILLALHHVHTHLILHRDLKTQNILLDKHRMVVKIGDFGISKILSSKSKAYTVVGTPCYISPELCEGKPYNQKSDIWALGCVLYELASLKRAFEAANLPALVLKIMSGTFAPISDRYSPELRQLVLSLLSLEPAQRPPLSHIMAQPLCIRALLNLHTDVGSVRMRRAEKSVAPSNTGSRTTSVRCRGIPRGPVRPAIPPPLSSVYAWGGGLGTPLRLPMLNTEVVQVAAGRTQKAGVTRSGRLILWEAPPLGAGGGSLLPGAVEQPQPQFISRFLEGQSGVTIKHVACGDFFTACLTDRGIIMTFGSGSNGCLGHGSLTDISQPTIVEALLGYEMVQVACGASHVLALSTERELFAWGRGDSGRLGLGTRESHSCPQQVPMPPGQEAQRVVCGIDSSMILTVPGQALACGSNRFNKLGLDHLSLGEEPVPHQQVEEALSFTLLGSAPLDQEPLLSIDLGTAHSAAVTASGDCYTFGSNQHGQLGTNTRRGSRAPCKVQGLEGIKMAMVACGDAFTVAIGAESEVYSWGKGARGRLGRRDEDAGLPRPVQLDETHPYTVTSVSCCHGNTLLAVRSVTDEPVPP
UniProt P53667, whole entry: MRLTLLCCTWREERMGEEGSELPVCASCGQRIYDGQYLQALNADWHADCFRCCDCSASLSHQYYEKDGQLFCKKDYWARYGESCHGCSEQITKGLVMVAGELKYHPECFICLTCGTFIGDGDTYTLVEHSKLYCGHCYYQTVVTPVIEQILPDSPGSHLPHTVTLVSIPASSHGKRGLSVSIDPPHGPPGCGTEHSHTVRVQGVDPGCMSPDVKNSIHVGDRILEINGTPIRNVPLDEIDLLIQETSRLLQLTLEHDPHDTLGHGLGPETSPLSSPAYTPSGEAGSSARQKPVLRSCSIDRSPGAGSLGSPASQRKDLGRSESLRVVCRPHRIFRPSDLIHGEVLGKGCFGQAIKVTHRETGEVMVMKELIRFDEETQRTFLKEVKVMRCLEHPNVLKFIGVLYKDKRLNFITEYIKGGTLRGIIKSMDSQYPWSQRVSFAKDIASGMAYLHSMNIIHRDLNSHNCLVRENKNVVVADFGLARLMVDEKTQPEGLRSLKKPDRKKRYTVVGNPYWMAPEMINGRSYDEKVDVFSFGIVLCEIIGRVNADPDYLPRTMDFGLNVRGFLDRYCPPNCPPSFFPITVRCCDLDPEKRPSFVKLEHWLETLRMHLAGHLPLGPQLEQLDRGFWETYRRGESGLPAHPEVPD
UniProt P22612, whole entry: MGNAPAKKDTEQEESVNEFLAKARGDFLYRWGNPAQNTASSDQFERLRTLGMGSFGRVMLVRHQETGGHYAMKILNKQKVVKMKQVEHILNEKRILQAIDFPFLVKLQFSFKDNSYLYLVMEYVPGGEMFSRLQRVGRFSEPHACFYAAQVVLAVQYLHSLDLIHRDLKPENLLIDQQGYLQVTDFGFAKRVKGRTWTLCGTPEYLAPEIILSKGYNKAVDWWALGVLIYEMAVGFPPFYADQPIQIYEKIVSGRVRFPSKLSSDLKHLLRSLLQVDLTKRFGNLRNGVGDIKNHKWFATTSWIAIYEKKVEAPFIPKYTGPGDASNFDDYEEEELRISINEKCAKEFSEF
UniProt P14616, 944-1297 limits assumed: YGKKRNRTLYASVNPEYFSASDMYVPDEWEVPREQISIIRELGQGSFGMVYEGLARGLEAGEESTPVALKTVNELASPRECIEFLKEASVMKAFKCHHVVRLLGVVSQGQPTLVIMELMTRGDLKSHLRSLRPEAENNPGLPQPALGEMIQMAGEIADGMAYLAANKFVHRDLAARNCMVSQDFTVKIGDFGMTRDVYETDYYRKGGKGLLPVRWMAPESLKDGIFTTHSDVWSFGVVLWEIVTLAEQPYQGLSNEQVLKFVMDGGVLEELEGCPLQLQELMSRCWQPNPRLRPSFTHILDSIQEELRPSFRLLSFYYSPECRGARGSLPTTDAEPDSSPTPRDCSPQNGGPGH
UniProt Q8TD19, whole entry: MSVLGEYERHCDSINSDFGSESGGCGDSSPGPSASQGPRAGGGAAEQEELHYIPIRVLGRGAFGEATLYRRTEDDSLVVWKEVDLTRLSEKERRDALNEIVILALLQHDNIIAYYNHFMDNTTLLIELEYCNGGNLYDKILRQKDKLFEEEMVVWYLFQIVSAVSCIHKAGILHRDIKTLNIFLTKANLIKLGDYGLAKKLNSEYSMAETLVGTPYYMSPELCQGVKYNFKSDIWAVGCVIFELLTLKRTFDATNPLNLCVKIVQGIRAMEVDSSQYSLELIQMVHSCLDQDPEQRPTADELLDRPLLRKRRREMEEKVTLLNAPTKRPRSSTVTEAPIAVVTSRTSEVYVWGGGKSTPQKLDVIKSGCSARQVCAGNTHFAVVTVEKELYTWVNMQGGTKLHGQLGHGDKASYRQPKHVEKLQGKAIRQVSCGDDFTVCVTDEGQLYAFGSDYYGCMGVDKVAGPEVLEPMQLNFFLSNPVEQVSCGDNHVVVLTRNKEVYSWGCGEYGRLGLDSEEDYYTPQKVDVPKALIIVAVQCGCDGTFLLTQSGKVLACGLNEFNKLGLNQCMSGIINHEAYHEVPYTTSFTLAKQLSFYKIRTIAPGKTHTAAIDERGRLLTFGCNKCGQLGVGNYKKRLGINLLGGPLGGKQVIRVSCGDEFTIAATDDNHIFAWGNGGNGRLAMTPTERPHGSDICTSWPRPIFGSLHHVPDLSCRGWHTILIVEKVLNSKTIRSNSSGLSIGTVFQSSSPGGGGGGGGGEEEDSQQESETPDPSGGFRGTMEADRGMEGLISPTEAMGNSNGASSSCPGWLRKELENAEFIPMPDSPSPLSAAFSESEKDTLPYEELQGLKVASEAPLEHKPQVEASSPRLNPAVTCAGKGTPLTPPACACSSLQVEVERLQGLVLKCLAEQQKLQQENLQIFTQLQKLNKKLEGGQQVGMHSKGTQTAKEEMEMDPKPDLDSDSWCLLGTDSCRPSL
UniProt Q14289, whole entry: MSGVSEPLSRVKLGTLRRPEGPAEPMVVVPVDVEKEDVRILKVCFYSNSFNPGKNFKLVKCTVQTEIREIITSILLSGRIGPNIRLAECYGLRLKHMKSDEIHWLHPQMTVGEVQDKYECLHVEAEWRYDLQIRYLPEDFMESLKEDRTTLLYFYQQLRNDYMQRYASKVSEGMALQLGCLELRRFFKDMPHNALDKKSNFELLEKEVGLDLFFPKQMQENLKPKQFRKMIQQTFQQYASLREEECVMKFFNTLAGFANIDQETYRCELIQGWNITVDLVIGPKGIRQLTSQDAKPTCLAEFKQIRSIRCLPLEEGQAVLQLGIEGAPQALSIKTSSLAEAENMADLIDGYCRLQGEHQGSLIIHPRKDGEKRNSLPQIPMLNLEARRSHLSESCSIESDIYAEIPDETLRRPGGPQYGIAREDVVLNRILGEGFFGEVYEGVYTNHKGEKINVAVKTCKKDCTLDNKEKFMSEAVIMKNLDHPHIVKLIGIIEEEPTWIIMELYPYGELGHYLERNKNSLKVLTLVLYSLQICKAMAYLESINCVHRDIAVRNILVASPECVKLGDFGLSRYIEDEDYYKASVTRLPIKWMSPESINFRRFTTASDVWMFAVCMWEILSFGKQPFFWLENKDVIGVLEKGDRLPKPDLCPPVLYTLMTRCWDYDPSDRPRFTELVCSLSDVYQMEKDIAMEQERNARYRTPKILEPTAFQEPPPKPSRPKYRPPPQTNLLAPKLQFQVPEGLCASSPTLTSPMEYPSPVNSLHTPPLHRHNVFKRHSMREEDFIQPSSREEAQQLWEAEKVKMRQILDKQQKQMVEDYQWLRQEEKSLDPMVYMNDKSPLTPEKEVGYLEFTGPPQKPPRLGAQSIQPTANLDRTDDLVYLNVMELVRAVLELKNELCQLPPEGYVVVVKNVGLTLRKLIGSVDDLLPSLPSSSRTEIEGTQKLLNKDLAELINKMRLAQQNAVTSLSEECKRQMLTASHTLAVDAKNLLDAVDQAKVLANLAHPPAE
UniProt P17948, 27-1338 limits assumed: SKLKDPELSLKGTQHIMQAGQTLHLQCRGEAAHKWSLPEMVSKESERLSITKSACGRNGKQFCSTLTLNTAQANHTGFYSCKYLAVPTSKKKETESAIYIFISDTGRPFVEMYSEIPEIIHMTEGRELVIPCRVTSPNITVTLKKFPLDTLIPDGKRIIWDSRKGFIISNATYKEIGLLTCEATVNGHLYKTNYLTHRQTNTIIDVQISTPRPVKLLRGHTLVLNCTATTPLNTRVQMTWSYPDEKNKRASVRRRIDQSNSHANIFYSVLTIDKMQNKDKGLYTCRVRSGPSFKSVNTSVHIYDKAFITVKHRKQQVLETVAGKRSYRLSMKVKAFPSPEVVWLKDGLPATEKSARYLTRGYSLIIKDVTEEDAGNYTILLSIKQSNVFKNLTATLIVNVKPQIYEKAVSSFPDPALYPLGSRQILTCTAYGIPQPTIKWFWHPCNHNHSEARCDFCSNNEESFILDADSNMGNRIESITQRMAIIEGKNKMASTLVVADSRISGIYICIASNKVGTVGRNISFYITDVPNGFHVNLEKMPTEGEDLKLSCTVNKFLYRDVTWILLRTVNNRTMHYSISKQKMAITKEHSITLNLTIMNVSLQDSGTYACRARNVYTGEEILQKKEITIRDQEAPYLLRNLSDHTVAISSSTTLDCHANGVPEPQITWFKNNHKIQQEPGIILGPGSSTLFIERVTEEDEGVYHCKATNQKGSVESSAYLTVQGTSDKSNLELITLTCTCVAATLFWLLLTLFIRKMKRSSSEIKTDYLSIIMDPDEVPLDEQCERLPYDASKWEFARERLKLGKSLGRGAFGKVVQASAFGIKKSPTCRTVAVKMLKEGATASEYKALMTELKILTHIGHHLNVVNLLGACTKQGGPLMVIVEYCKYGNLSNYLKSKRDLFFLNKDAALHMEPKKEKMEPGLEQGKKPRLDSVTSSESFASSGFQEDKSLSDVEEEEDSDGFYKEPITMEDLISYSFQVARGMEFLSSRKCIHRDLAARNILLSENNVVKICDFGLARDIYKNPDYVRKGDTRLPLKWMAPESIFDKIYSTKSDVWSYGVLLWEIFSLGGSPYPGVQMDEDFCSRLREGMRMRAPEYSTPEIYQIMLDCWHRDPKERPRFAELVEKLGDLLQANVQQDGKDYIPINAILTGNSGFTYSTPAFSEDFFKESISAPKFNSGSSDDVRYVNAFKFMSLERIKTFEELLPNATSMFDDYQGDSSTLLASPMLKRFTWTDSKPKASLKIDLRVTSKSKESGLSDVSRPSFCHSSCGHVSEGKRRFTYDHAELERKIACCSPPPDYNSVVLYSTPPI

Experiments:
SIK1 = SIK1 (Homo sapiens, UniProt P57059); test: Kinase profiling, Lantha; settings: 1 μM, KmATP
MAPK15 (ERK7) = MAPK15 (ERK7) (Homo sapiens, UniProt Q8TD08); test: Kinase profiling, Lantha; settings: 1 μM, KmATP
MAP2K1 (MEK1) = MAP2K1 (MEK1) (Homo sapiens, UniProt Q02750); test: Kinase profiling, Lantha; settings: 1 μM, KmATP
CDK11 Cyclin C = test: Kinase profiling, Lantha; settings: 1 μM, KmATP
AMPK (A1/B1/G2) = AMPK (A1/B1/G2) (Homo sapiens, UniProt Q13131); test: Kinase profiling, Lantha; settings: 1 μM, KmATP
MAPK10 (JNK3) = MAPK10 (JNK3) (Homo sapiens, UniProt P53779); test: Kinase profiling, Lantha; settings: 1 μM, KmATP
SLK Hu Bind = SLK Hu Bind (Homo sapiens, UniProt Q9H2G2); test: Kinase profiling, Lantha; settings: 1 μM, KmATP
NEK8 = NEK8 (Homo sapiens, UniProt Q86SG6); test: Kinase profiling, Lantha; settings: 1 μM, KmATP
MAP4K1 (HPK1) = MAP4K1 (HPK1) (Homo sapiens, UniProt Q92918); test: Kinase profiling, Lantha; settings: 1 μM, KmATP
WNK3 = WNK3 (Homo sapiens, UniProt Q9BYP7); test: Kinase profiling, Lantha; settings: 1 μM, KmATP
MAP3K10 (MLK2) = MAP3K10 (MLK2) (Homo sapiens, UniProt Q02779); test: Kinase profiling, Lantha; settings: 1 μM, KmATP
ULK1 = ULK1 (Homo sapiens, UniProt O75385); test: Kinase profiling, Lantha; settings: 1 μM, KmATP
VRK2 = VRK2 (Homo sapiens, UniProt Q86Y07); test: Kinase profiling, Lantha; settings: 1 μM, KmATP
STK17A (DRAK1) = STK17A (DRAK1) (Homo sapiens, UniProt Q9UEE5); test: Kinase profiling, Lantha; settings: 1 μM, KmATP
MYO3B = MYO3B (Homo sapiens, UniProt Q8WXR4); test: Kinase profiling, Lantha; settings: 1 μM, KmATP
ACVR1 (ALK2) = ACVR1 (ALK2) (Homo sapiens, UniProt Q04771); test: Kinase profiling, Lantha
CDK2/cyclin A1 = CDK2/cyclin A1 (Homo sapiens, UniProt P24941); test: Kinase profiling, Lantha; settings: 1 μM, KmATP
CLK4 = CLK4 (Homo sapiens, UniProt Q9HAZ1); test: Kinase profiling, Lantha; settings: 1 μM, KmATP
MAP2K6 (MKK6) = MAP2K6 (MKK6) (Homo sapiens, UniProt P52564); test: Kinase profiling, Lantha; settings: 1 μM, KmATP
LIMK1 = LIMK1 (Homo sapiens, UniProt P53667); test: Kinase profiling, Lantha; settings: 1 μM, KmATP
PRKACG = PRKACG (Homo sapiens, UniProt P22612); test: Kinase profiling, Lantha; settings: 1 μM, KmATP
MKNK1 (MNK1) = MKNK1 (MNK1) (Homo sapiens, UniProt Q9BUB5); test: Kinase profiling, Z-Lyte *Mn*; settings: 1 μM, KmATP
ERBB2 (HER2) = ERBB2 (HER2) (Homo sapiens, UniProt P04626); test: Kinase profiling, Z-Lyte *Mn*; settings: 1 μM, KmATP
GRK5 = GRK5 (Homo sapiens, UniProt P34947); test: Kinase profiling, Z-Lyte *Mn*; settings: 1 μM, KmATP
FGFR4 = FGFR4 (Homo sapiens, UniProt P22455); test: Kinase profiling, Z-Lyte *Mn*; settings: 1 μM, KmATP
ZAP70 = ZAP70 (Homo sapiens, UniProt P43403); test: Kinase profiling, Z-Lyte *Mn*; settings: 1 μM, KmATP
FGFR3 = FGFR3 (Homo sapiens, UniProt P22607); test: Kinase profiling, Z-Lyte *Mn*; settings: 1 μM, KmATP
INSRR (IRR) = INSRR (IRR) (Homo sapiens, UniProt P14616); test: Kinase profiling, Z-Lyte *Mn*; settings: 1 μM, KmATP
FLT4 (VEGFR3) = FLT4 (VEGFR3) (Homo sapiens, UniProt P35916); test: Kinase profiling, Z-Lyte *Mn*; settings: 1 μM, KmATP
NEK9 = NEK9 (Homo sapiens, UniProt Q8TD19); test: Kinase profiling, Z-Lyte *Mn*; settings: 1 μM, KmATP
MUSK = MUSK (Homo sapiens, UniProt O15146); test: Kinase profiling, Z-Lyte *Mn*; settings: 1 μM, KmATP
PTK6 (Brk) = PTK6 (Brk) (Homo sapiens, UniProt Q13882); test: Kinase profiling, Z-Lyte *Mn*; settings: 1 μM, KmATP
FGFR2 = FGFR2 (Homo sapiens, UniProt P21802); test: Kinase profiling, Z-Lyte *Mn*; settings: 1 μM, KmATP
PTK2B (FAK2) = PTK2B (FAK2) (Homo sapiens, UniProt Q14289); test: Kinase profiling, Z-Lyte *Mn*; settings: 1 μM, KmATP
ERBB4 (HER4) = ERBB4 (HER4) (Homo sapiens, UniProt Q15303); test: Kinase profiling, Z-Lyte *Mn*; settings: 1 μM, KmATP
PDGFRB = PDGFRB (Homo sapiens, UniProt P09619); test: Kinase profiling, Z-Lyte *Mn*; settings: 1 μM, KmATP
FRAP1 (mTOR) = FRAP1 (mTOR) (Homo sapiens, UniProt P42345); test: Kinase profiling, Z-Lyte *Mn*; settings: 1 μM, KmATP
FLT1 (VEGFR1) = FLT1 (VEGFR1) (Homo sapiens, UniProt P17948); test: Kinase profiling, Z-Lyte *Mn*; settings: 1 μM, KmATP
MERTK (cMER) = MERTK (cMER) (Homo sapiens, UniProt Q12866); test: Kinase profiling, Z-Lyte *Mn*; settings: 1 μM, KmATP
IRAK4 = IRAK4 (Homo sapiens, UniProt Q9NWZ3); test: Kinase profiling, Z-Lyte *Mn*; settings: 1 μM, KmATP

SMILES: Cc1nc(C(F)(F)F)c2c(C(N)=O)c(N)n(-c3c(C)ccc(O)c3C)c2n1 (single isomer, unassigned)
- MEAN INHIBITION (SIK1): 17.289%
- MEAN INHIBITION (MAPK15 (ERK7)): 0.548%
- MEAN INHIBITION (MAP2K1 (MEK1)): −1.153%
- MEAN INHIBITION (CDK11 Cyclin C): 35.689%
- MEAN INHIBITION (AMPK (A1/B1/G2)): 0.515%
- MEAN INHIBITION (MAPK10 (JNK3)): 4.282%
- MEAN INHIBITION (SLK Hu Bind): 2.440%
- MEAN INHIBITION (NEK8): 3.787%
- MEAN INHIBITION (MAP4K1 (HPK1)): −0.865%
- MEAN INHIBITION (WNK3): −2.040%
- MEAN INHIBITION (MAP3K10 (MLK2)): 1.290%
- MEAN INHIBITION (ULK1): 0.045%
- MEAN INHIBITION (VRK2): −4.440%
- MEAN INHIBITION (STK17A (DRAK1)): 12.833%
- MEAN INHIBITION (MYO3B): 9.952%
- MEAN INHIBITION (ACVR1 (ALK2); 1 μM, KmATP): 80.237%
- IC50 (ACVR1 (ALK2); 10-point CR, top 10 μM): 172 nM
- MEAN INHIBITION (CDK2/cyclin A1): 11.556%
- MEAN INHIBITION (CLK4): 7.663%
- MEAN INHIBITION (MAP2K6 (MKK6)): 2.457%
- MEAN INHIBITION (LIMK1): 27.550%
- MEAN INHIBITION (PRKACG): 7.319%
- MEAN INHIBITION (MKNK1 (MNK1)): 0.622%
- MEAN INHIBITION (ERBB2 (HER2)): 0.967%
- MEAN INHIBITION (GRK5): −1.432%
- MEAN INHIBITION (FGFR4): 0.351%
- MEAN INHIBITION (ZAP70): 8.344%
- MEAN INHIBITION (FGFR3): −3.160%
- MEAN INHIBITION (INSRR (IRR)): 3.922%
- MEAN INHIBITION (FLT4 (VEGFR3)): 3.700%
- MEAN INHIBITION (NEK9): 0.700%
- MEAN INHIBITION (MUSK): −4.285%
- MEAN INHIBITION (PTK6 (Brk)): 90.004%
- MEAN INHIBITION (FGFR2): 2.906%
- MEAN INHIBITION (PTK2B (FAK2)): 4.024%
- MEAN INHIBITION (ERBB4 (HER4)): −2.799%
- MEAN INHIBITION (PDGFRB): 3.732%
- MEAN INHIBITION (FRAP1 (mTOR)): 0.025%
- MEAN INHIBITION (FLT1 (VEGFR1)): −2.074%
- MEAN INHIBITION (MERTK (cMER)): 4.429%
- MEAN INHIBITION (IRAK4): −5.866%
